Here are results for 1 compound from BindingDB's records for US8530494.

Protein sequences, listed by entry. Tags and fused reporters are not part of them.
UniProt P41143, whole entry, looked up: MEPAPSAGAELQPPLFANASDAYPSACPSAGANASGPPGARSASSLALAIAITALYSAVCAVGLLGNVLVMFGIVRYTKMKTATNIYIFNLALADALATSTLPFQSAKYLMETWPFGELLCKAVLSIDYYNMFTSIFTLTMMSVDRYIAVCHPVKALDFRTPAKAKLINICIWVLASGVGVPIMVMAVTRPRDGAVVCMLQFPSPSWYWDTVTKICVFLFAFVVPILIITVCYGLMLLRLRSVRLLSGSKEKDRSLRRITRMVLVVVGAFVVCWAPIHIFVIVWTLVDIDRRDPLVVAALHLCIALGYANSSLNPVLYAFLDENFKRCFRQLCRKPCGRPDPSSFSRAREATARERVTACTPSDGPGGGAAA

The assay deals with Delta-type opioid receptor (Homo sapiens, UniProt P41143). The assay is described as follows: ASSAY_NAME: Binding Assay DESCRIPTION: Binding assay of certain compounds of this invention to the opioid receptor was determine using radioligand binding assay (screening and dose-displacement).

`CC1(C)c2[nH]nc(Nc3ncnc4ccoc34)c2CN1C(=O)N[C@H]1C[C@@H]1c1ccccc1`: the inhibition constant Ki stood at 0.058 µM.
